## Apparent affinities of Ab-95 variants for a coronavirus HR2 peptide

Binding partner: SARS-CoV-2 spike HR2 peptide, sequence PDVDLGDISGINAS.

Parent: Ab-95, a human scFv built as VH, three GGGGS repeats, VL. Only the CDRs of the light chain vary.
VH: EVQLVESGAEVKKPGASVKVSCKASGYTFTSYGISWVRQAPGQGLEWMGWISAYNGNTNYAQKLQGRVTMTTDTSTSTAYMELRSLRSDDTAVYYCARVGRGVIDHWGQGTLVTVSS
VL: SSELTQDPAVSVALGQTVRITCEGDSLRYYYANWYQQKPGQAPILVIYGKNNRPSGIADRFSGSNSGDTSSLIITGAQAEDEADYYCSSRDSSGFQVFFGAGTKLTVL

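The starting antibody came from a phage panning campaign against this peptide. In library AAYL52, one, two or three CDR residues were substituted; doubles and triples were drawn at random. Affinity was read by AlphaSeq, a pooled yeast mating assay with surface-displayed partners. The frequency of each diploid, read from paired DNA barcodes, reflects how well the two displayed proteins bind. Each replicate has its own calibration line, from reference interactions of the BCL2 family. The assay was run in three technical replicates.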

Each variant is given by its three light chain CDRs, as the data file delimits them; those of the parent are EGDSLRYYYAN, GKNNRPS, SSRDSSGFQVF. This list gathers variants with a substitution at V97 (VL, numbered from residue 1). Values are apparent Kd, the geometric mean of the replicates that gave a signal; lower means stronger binding. "no signal" marks a missing value. The strain was present, yet no cells mated with the target were sequenced in any replicate, which points to weak or no binding. Empty control strains, which show no peptide, gave a signal in 28% of pairings with library AAYL52; the median was 8.2 µM and 95% of these signals were weaker than 800 nM. No background was subtracted.

GGDSLRYYYAN, GKNKRPS, SSRDSSGFQMF: 270 nM (3 of 3 replicates).
EGDSLRYYYAN, GKINRPS, SSRDSSGFHGF: 19 µM (2 of 3 replicates).
EGDSLRYYYAN, GKNNRPS, ASRDKSGFQIF: no signal (0 of 3 replicates).
EGDSLRYYYAN, GYNNRPS, SSRDHSGFQQF: 6.5 µM (3 of 3 replicates).
GGDSLRYYYAN, GKNNRPS, SNRDSSGFQCF: 2.8 µM (1 of 3 replicates).
EGISLRYYYAN, GSNNRPS, SSRDSSGFQQF: 3.5 µM (2 of 3 replicates).
EGDSLRYYYAN, GKNNRPS, SDQDSSGFQSF: 71 µM (2 of 3 replicates).
EHDSLRYYYAN, GKNNRPS, SSRDSSGSQQF: 1.6 µM (3 of 3 replicates).
EGDSLRGYYAN, GKNNRPS, SSRDSSGEQAF: 1.7 µM (3 of 3 replicates).
EGDSLRDYYAN, GKNNRSS, SSRDSSGFQNF: 7.5 µM (2 of 3 replicates).
EGDSLRYYGAN, GKNNRPS, SNRDSSGFQCF: 8.1 µM (1 of 3 replicates).
EGDFLRYYYAN, GKNNRPS, SSRDSSGFWDF: no signal (0 of 3 replicates).
EGDSLRYYYAN, GKNYRPS, SSRASSGFQAF: 810 nM (3 of 3 replicates).
EGHSLRYYYAN, GKNNRPS, SSGDSSGFQAF: 3.7 µM (3 of 3 replicates).
EGDSLRYYYAN, GKNSRPS, SSRDSSGFDTF: 1.4 µM (2 of 3 replicates).
EGDSLRYYAAN, GKNNRPI, SSRDSSGFQEF: 2.9 µM (3 of 3 replicates).
EGDSLRYYYAN, GKHNRPS, SSRDSEGFQAF: 1.7 µM (1 of 3 replicates).
EGNSLRGYYAN, GKNNRPS, SSRDSSGFQAF: 41 nM (3 of 3 replicates).
EGDSLRYYYAN, GKNHRPS, GSRDSSGFQMF: 29 µM (2 of 3 replicates).
ERDSLRYYYAN, GKNYRPS, SSRDSSGFQMF: 28 µM (2 of 3 replicates).
EGDSLRYYYAN, GKNNRMS, SSRDCSGFQGF: 2.7 µM (1 of 3 replicates).
EGDSLRYYLAN, GKNLRPS, SSRDSSGFQWF: 300 nM (3 of 3 replicates).
EGDSNRYNYAN, GKNNRPS, SSRDSSGFQQF: 22 nM (3 of 3 replicates).
EGDSLRVYYAN, GKNNQPS, SSRDSSGFQCF: 42 µM (1 of 3 replicates).
EGDSLRYYIAN, GKNNRPS, SSRDDSGFQEF: 6.3 µM (2 of 3 replicates).
EGDSLRYYYAN, GKNNRPS, SKQDSSGFQNF: 190 nM (3 of 3 replicates).
EGDSLRYYYAN, GKNTRPW, SSRDSSGFQMF: 43 µM (1 of 3 replicates).
EGDSLRYYYAN, GKNNRPS, SSLDSSHFQLF: 140 nM (1 of 3 replicates).
EGDSLRYWYAN, GKNNRPS, SSLDSSGFQKF: 3.8 µM (1 of 3 replicates).
EGDSLRYYYAN, GKNIRPS, SSRDSSGFQEF: no signal (0 of 3 replicates).
EGDSLRYYYAC, GKNNRPS, SSRDSKGFQFF: no signal (0 of 3 replicates).
EGDSLRYYYAN, CKNNRPS, SSRDSSGFQPF: no signal (0 of 3 replicates).
EGDSLRYYYAN, GKNNRDS, SSRDSSNFQKF: 34 µM (1 of 3 replicates).
EGDSLRYYYAN, GKDNRPS, SSRDSSGFQIG: 480 nM (3 of 3 replicates).
EGQSLRYYYAN, GKNNRPS, SSRDSSGFQYY: 330 nM (3 of 3 replicates).
EGDSLRYYYAS, GKNNRPS, SSRDSSGFQPF: 3.9 µM (3 of 3 replicates).
EGDSLRYYYAN, GKNNRPK, SSRDSSGIQAF: 440 nM (3 of 3 replicates).
SGDSLRYYYAN, GKNNRPS, YSRDSSGFQIF: 1.2 µM (3 of 3 replicates).
EGDSLRYYYAN, GKNNRPS, SSRCSSGFINF: 560 nM (3 of 3 replicates).
EGDSLRMYYAS, GKNNRPS, SSRDSSGFQWF: 10 µM (3 of 3 replicates).

Extract of 4 entries:

EGDSLRYYYAN, GKNNRPK, SSRDSSGIQAF: 440 nM (3 of 3 replicates).
EGDSLRYYGAN, GKNNRPS, SNRDSSGFQCF: 8.1 µM (1 of 3 replicates).
EGDSLRYYYAN, GKNNRPS, SSRCSSGFINF: 560 nM (3 of 3 replicates).
EGDSLRYYYAN, GKDNRPS, SSRDSSGFQIG: 480 nM (3 of 3 replicates).

From the AlphaSeq antibody data of Engelhart et al. 2022 (doi:10.1038/s41597-022-01779-4), copy in the FLAb collection.